Species on record: Homo sapiens
Conditions: dose 100.0 µM

- ΔTm: 2.5 °C
Compound: CCCCNC(=O)c1cc(-c2ccc(Cl)cc2)sc1N

Reference: ChEMBL document CHEMBL5154701, “Thieno[2,3-d]pyrimidine-2,4(1H,3H)-dione Derivative Inhibits d-Dopachrome Tautomerase Activity and Suppresses the Proliferation of Non-Small Cell Lung Cancer Cells” (J Med Chem, 2022)
